The test system of data set [1] is thymus. As to conditions: mouse, in vivo.
Data set [2] concerns C57BL/6 mice. Description: Delayed Type Hypersensitivity (DTH), OVA ear challenge. It is filed as in vivo. The note with it: for CHANGE IN EAR THICKNESS, LEFT EAR (PBS) / CHANGE IN EAR THICKNESS, RIGHT EAR (OVA): TSH 2.0 mg/kg.
Data set [3] concerns C57BL/6 mice. Description: LPS-induced mild endotoxemia mouse model, serum cytokines by ELISA. Format: in vivo. The protocol:
The LPS-induced mild endotoxemia model is an in vivo model designed to mimic acute endotoxemia/sepsis by challenging mice with a low, non-lethal dose of bacterial endotoxin (lipopolysaccharide, LPS). Serum is collected at various timepoints (1-72 hours) after intraperitoneal LPS injection and analyzed for altered expression of a wide variety of pro- and anti-inflammatory cytokines and acute phase proteins that mediate the inflammatory response. The model provides a means to assess the potential anti-inflammatory effects of therapeutic candidates during a robust inflammatory response.
In this model, an initial experiment is run to determine the production of proinflammatory cytokines in response to an injection of LPS. For example, six-month old Balb/c (Charles River Laboratories, Wilmington, Mass.) female mice are injected with 25 μg LPS (Sigma) in sterile PBS intraperitoneally (i.p.). Serum samples are collected at 0, 1, 4, 8, 16, 24, 48 and 72 hours later, and are assayed for serum levels of inflammatory mediators, such as IL-1β, IL-6, TNFα, and IL-10. Commercially available ELISA kits (Biosource International, Camarillo, Calif.) can be used to deterime the serum levels. In this assay TNFα levels and IL-1β levels can be measured at 1 hour post-LPS injection, and IL-6, IL-10 and IL-10 can be measured at 4 hours post injection. From these inflammatory mediators, one or more is chosen as a representative biological marker(s) for the LPS model of mild endotoxemia.
Next, C57BL/6 mice (Charles River Laboratories; 5 mice/group) are treated i.p. with PBS, or the test compound in PBS 1 hour prior to LPS challenge. The mice are then challenged with 25 ug of LPS i.p. and are bled at 1 hour and 4 hours after LPS injection. The level of the representative biological marker(s) is analyzed by ELISA.
Suppression of the production of the pro-inflammatory cytokines (for example, TNFα) while enhancement of the expression of anti-inflammatory cytokines (for example, IL-6) will show the anti-inflammatory effects of the test compound. […]

The subject of data set [4] is human PBMC, lymphoid cells. Description: TSH-biotin binding by flow cytometry (SA-PE staining). As to conditions: TSH-biotin 10 ug/ml. On the technique in general: A flow cytometer gives signals particle by particle.
The test system of data set [5] is NCI-H295R cells. Description: CRE-luciferase reporter assay of cAMP-mediated gene induction in adrenal cortex cells. Format: cell-based, human. An excerpt:
Summary: A human adrenal cortex cell line, NCI-H295R, was used to study signal transduction of TSH. NCI-H295R was transduced with recombinant adenovirus containing a reporter construct, a firefly luciferase gene under the control of cAMP response element (CRE) enhancer sequences. This assay system detects cAMP-mediated gene induction downstream of activation of Gs-coupled GPCR's (G-protein coupled receptors). […] Typically, TSH elicited a maximal response of 15-25-fold luciferase induction above control media.
NCI-H295R cells were obtained from the ATCC(CRL-2128, Manassas, Va.) and cultured in growth medium as follows: 1:1 mixture of Dulbecco's modified Eagle's medium and Ham's F12 medium with L-glutamine (D-MEM/F-12; GIBCO, cat.# 11320-033) containing 25 mM HEPES buffer (GIBCO, Invitrogen, Carlsbad, Calif., cat.# 15630-080), 1 mM sodium pyruvate (GIBCO, cat.# 11360-070), 1% ITS+1 media supplement (Sigma St. Louis, Mo. cat# 12521) and 2.5% Nu-Serum I (BD Biosciences, Lexington, Ky. cat.#355100). Cells were cultured at 37° C. in a 5% CO2 humidified incubator. […]
Promega's Luciferase Assay System (Promega, Madison, Wis., cat. # E1500) was used to process the treated cells. […] Luciferase activity was measured on a microplate luminometer (PerkinElmer Life Sciences, Inc., model LB 96V2R) following automated injection of luciferase assay substrate.
For orientation: Reporter assays use an easily measured gene product as a stand-in for the process of interest.

Where [6] appears, read: Expt 1 (n = 8), treatment i.p. at challenge (d 7), two hours prior, Dex 1.5 mg/kg, 24 hours after challenge.
Setting [7] is: Expt 2 (n = 7), treatment i.p. once a day at sensitization (d 0-4), Dex 1.5 mg/kg, challenge day 7, measured day 8.
[8] abbreviates: Expt 3 (n = 7), adrenalectomized (ADX) mice, treatment i.p. at challenge (d 7), Dex 1.5 mg/kg.

Take “TSH: heterodimeric protein hormone; alpha subunit SEQ ID NO:3 and beta subunit SEQ ID NO:6, non-covalently associated”: in data set [1], the “relative proportion of each thymocyte subset (CD4 SP, CD8 SP, CD4+CD8+, CD4−CD8−)” value is recorded as “not significantly different from that of the PBS-treated group”. In data set [1], the “thymic atrophy (in words)” value was “neither the thymus weight nor the overall thymocyte cell counts were significantly affected”. The “CHANGE IN EAR THICKNESS, LEFT EAR (PBS)” value in data set [2] (setting [6]) is reported as 0.21 +/− 1.29 ×10^−3 inch; in data set [2] (setting [7]), 1.26 +/− 0.99 ×10^−3 inch; in data set [2] (setting [8]) it was 0.14 +/− 0.50 ×10^−3 inch. Further, the “CHANGE IN EAR THICKNESS, RIGHT EAR (OVA)” value is given as 3.98 +/− 1.00 ×10^−3 inch in data set [2] (setting [6]), 6.07 +/− 0.67 ×10^−3 inch in data set [2] (setting [7]) and 4.81 +/− 1.31 ×10^−3 inch in data set [2] (setting [8]). Besides, the “DTH reaction, ear thickness vs PBS controls (in words)” value in data set [2] (Expt 1, treatment i.p. two hours prior to OVA re-challenge, Dex 1.5 mg/kg, TSH 2 mg/kg) was “lesser degree of ear thickness compared to controls”. The “DTH reaction (in words)” value in data set [2] (Expt 2, treatment i.p. once a day days 0 to 4 (sensitization phase)) is reported as “significantly inhibited the DTH reaction”. For the same substance, the “ear swelling in response to OVA re-challenge (in words)” value in data set [2] (Expt 3, adrenalectomized (ADX) mice) was “reduced ear swelling”. Also, the “anti-inflammatory effect in LPS model (in words)” value in data set [3] (TSH 2 mg/kg in PBS, TNFα suppression and IL-6 enhancement) was “has anti-inflammatory effects in this model”. Also, the “TNFα (1 hr) +/− S.E.” value in data set [3] (serum 1 hour after 25 ug LPS i.p., treatment i.p. 1 hour prior, Dex 0.015 mg/kg, TSH 2.0 mg/kg, Thyroxine 0.05 mg/kg, PBS group 6990.8) turned out to be 4345.5 ± 385.2 pg/mL. Besides, the “IL-6 (4 hr) +/− S.E.” value in data set [3] (serum 4 hours after 25 ug LPS i.p., treatment i.p. 1 hour prior, Dex 0.015 mg/kg, TSH 2.0 mg/kg, Thyroxine 0.05 mg/kg, PBS group 45.6) was found to be 73.1 ± 11.2 ng/mL. For the same substance, in data set [4], the “binding to lymphoid cells (in words)” value was “absence of such staining”. For the same substance, the “maximal response, luciferase induction above control media” value in data set [5] (NCI-H295R transduced with CRE-luciferase reporter, four hours incubation with purified TSH heterodimer) is 15-25 fold. In addition, the “induction of luciferase activity (in words)” value in data set [5] (NCI-H295R with CRE-luciferase reporter, compared with 10 μM forskolin) is recorded as “dose-dependent induction of luciferase activity equal to or higher than that induced by 10 μM forskolin”.
